Experimental data taken from patent US9205154B2, “Method for screening an agent being useful for the treatment of dry eye and/or corneal and conjunctival lesion and a pharmaceutical composition obtained by the method” (R-TECH UENO, LTD., priority 2009, dated 2015).
Marks after values point to notes of the source that are not given here.

Test system: cornea of rabbits with n-heptanol-induced keratoconjunctival injury
Experiment: Model rabbit of n-heptanol-induced corneal and conjunctival lesion; fluorescein staining score of cornea
Format: in vivo, Rabbits (std:NZW)

With “10% nHSA: Kenketsu albumin-Wf (25% human serum albumin formulation, Mitsubishi Tanabe Pharma) diluted with sodium chloride solution” the “Scores of fluorescein staining (mean of 6 cases), Day 0” value (Day 0 (day of n-heptanol treatment), ocular, 50 μl/eye, 2 times per day for 10 days, total score out of 15, smaller = higher restoring effect) was 15.00, the “Scores of fluorescein staining (mean of 6 cases), Day 1” value (Day 1, ocular, 50 μl/eye, 2 times per day for 10 days, total score out of 15) was 15.00 and the “Scores of fluorescein staining (mean of 6 cases), Day 2” value (Day 2, ocular, 50 μl/eye, 2 times per day for 10 days, total score out of 15) was 15.00. The “Scores of fluorescein staining (mean of 6 cases), Day 3” value (Day 3, ocular, 50 μl/eye, 2 times per day for 10 days, total score out of 15) was 14.83, the “Scores of fluorescein staining (mean of 6 cases), Day 3.5” value (Day 3.5, ocular, 50 μl/eye, 2 times per day for 10 days, total score out of 15) was 13.83 and the “Scores of fluorescein staining (mean of 6 cases), Day 4” value (Day 4, ocular, 50 μl/eye, 2 times per day for 10 days, total score out of 15) was 12.83 *. The “Scores of fluorescein staining (mean of 6 cases), Day 4.5” value (Day 4.5, ocular, 50 μl/eye, 2 times per day for 10 days, total score out of 15) was 11.00 **, the “Scores of fluorescein staining (mean of 6 cases), Day 5” value (Day 5, ocular, 50 μl/eye, 2 times per day for 10 days, total score out of 15) was 7.17 * and the “Scores of fluorescein staining (mean of 6 cases), Day 5.5” value (Day 5.5, ocular, 50 μl/eye, 2 times per day for 10 days, total score out of 15) was 6.17 *. For the same substance, the “Scores of fluorescein staining (mean of 6 cases), Day 6” value (Day 6, ocular, 50 μl/eye, 2 times per day for 10 days, total score out of 15) was 4.83 *, the “Scores of fluorescein staining (mean of 6 cases), Day 7” value (Day 7, ocular, 50 μl/eye, 2 times per day for 10 days, total score out of 15) was 3.17 and the “Scores of fluorescein staining (mean of 6 cases), Day 8” value (Day 8, ocular, 50 μl/eye, 2 times per day for 10 days, total score out of 15) was 1.83. For the same substance, the “Scores of fluorescein staining (mean of 6 cases), Day 9” value (Day 9, ocular, 50 μl/eye, 2 times per day for 10 days, total score out of 15) was 1.50, the “Scores of fluorescein staining (mean of 6 cases), Day 10” value (Day 10, ocular, 50 μl/eye, 2 times per day for 10 days, total score out of 15) was 1.50 * and the “effect of restoring corneal tissue compared with serum” value (comparison of Test Example 3 with Test Example 1) was “equal to or more than that of serum”. For the same substance, the “scores of fluorescein staining of cornea compared to saline” value (days 4, 4.5, 5, 5.5, 6 and 10 of the treatment of lesion (Days 4, 5, 5.5, 6, 10: p<0.05; Day 4.5: p<0.01)) was “significantly lowered” and the “effect of restoring corneal tissue / corneal epithelium” value (versus saline in the other eye, Paired Student's t-test, significance level less than 5%, result in words) was “significant effect of restoring corneal tissue”.
